Key:
MC2-R = target: T1, MC2-R (Mus musculus, UniProt Q64326); test: Competitive binding assay with 125I-NDP-MSH, MC2 receptors; conditions: read-out: RELATIVE BINDING (Ki) MC2-R; Y1 cells; 125I-NDP-MSH radioligand
T1 construct: Y1 cells were used as the source of MC2 receptors; endogenous in cells; host or cells: Y1 cells

The chains behind the UniProt entries cited, without tags or fusion partners. Where a name states a change or a piece, a line headed by the entry shows the natural chain unless it says otherwise.
UniProt Q64326: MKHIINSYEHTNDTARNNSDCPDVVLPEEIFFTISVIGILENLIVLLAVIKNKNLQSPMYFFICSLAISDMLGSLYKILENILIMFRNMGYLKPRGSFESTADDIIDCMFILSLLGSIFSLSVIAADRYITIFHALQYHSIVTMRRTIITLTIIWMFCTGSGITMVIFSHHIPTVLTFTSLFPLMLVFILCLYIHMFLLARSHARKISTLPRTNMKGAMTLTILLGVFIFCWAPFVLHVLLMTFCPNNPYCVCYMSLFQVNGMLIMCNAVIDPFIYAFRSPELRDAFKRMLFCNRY
UniProt Q01727: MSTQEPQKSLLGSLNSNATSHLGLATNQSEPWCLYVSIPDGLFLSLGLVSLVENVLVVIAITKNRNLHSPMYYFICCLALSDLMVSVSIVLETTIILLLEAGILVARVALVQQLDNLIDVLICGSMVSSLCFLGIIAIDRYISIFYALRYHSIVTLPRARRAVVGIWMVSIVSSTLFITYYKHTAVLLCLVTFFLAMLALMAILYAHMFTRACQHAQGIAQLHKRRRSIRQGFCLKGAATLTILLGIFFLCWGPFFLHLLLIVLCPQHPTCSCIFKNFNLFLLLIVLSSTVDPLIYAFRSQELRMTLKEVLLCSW

MC1-R = target: T2, MC1-R (Mus musculus, UniProt Q01727); test: Competitive binding assay with 125I-NDP-MSH, MC1 receptors; conditions: read-out: RELATIVE BINDING (Ki) MC1-R; B16-F1 mouse melanoma cells; 125I-NDP-MSH radioligand
T2 construct: B16-F1 mouse melanoma cells were used as the source of MC1 receptors; endogenous in cells; host or cells: B16-F1 mouse melanoma cells

ferrets = test: Ferret emesis study; type: in vivo; conditions: animals out of six
From the text: Ferrets are a recognized model for emetic studies. The vehicle for both intravenous and intranasal administration was saline. The positive control was cisplatin, known to induce vomiting in ferrets. The data is described as the number of animals out of a group of six showing signs of vomiting.

Sprague Dawley rats [1] = conditions: stated as known; cited from earlier work
[2] = tested on: men with psychogenic erectile dysfunction; conditions: subcutaneous, 0.025 to 0.157 mg/kg; cited from earlier work
Sprague Dawley rats [3] = test: Induction of penile erection by intravenous injection; conditions: rat, in vivo

Question: With Melanotan-II [reference compound] as the substance, how does the Ki (MC2-R) read?
Answer: The Ki was greater than 1000 nM.

Question: And the Ki (MC1-R)?
Answer: The Ki was 0.12 nM.

Question: And the “Signs of vomiting (proportions)” value (ferrets; 10 μg/kg IV)?
Answer: The value was 1/6.

Question: And the “Signs of vomiting (proportions)” value (ferrets; 30 μg/kg IV)?
Answer: Its value is 4/6.

Question: What about the “Signs of vomiting (proportions)” value (ferrets; 100 μg/kg IN) of the same substance?
Answer: Its value is 0/6.

Question: And the “Signs of vomiting (proportions)” value (ferrets; 100 μg/kg IV)?
Answer: Its value is 6/6.

Question: What about the “Signs of vomiting (proportions)” value (ferrets; 300 μg/kg IN) of the same substance?
Answer: The value was 5/6.

Question: And the “Signs of vomiting (proportions)” value (ferrets; 500 μg/kg IN)?
Answer: Its value is 6/6.

Question: And the “Lowest dose inducing side effects” value (Sprague Dawley rats [1])?
Answer: The value was 300 μg/kg body weight.

Question: What about the Transient side effects [2] of the same substance?
Answer: The Transient side effects was “nausea, stretching and yawning, and decreased appetite”.

Question: And the “Therapeutic window (desired therapeutic effect to observed adverse effects)” value (Sprague Dawley rats [3])?
Answer: Its value is 3-4 fold.
